This is an account of results in patent US11466024B2, “Bicylic compound acting as an inhibitor” (CHIA TAI TIANQING PHARMACEUTICAL GROUP CO., LTD., priority 2017, dated 2022).

The chains behind the UniProt entries cited, without tags or fusion partners. Residues count along the entry.
UniProt P51449, 269-508 limits assumed: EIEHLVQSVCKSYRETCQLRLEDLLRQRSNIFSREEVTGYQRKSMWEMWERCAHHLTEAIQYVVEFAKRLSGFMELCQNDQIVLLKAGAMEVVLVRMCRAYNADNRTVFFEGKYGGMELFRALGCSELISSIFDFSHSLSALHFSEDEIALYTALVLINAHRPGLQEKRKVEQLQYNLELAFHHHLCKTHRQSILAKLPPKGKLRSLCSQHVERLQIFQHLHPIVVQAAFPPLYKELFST

The target in the test is RORC2-LBD (Homo sapiens, UniProt P51449). Nature of the test: In vitro test for inhibitory activity on RORγ: TR-FRET screening (RORC2-LBD / SRC1 peptide interaction). (In TR-FRET formats the signal depends on donor and acceptor labels being close together.)
Setting [1] is: read-out: Value of the concentration required for 50% inhibition (EC50) of RORγ, 15 nM RORc-LBD, 200 nM SRC1 peptide, 4° C. overnight, tested form: hydrochloride.

Where two headings read alike, the source gives them in different places. A value given as a limit tells only on which side of the number the result lay.

As to `CCS(=O)(=O)c1ccc([C@H](COC)NC(=O)c2cc3c(s2)C(C(C)C)N(C[C@H]2CC[C@H](C(F)(F)F)CC2)C3)cc1` (stereo partly shown), under setting [1], the EC50 is less than 100 nM.

In the case of `CCS(=N)(=O)c1ccc(CNC(=O)c2cc3c(s2)[C@H](C(C)C)N(C[C@H]2CC[C@H](C(F)(F)F)CC2)C3)nc1` (single isomer, unassigned), the EC50 by setting is: (read-out: Value of the concentration required for 50% inhibition (EC50) of RORγ, 15 nM RORc-LBD, 200 nM SRC1 peptide, 4° C. overnight, tested form: HCl) less than 100 nM; under setting [1], less than 100 nM. In the case of `CCS(=O)(=O)c1ccc(CNC(=O)c2cc3c(o2)C(C(C)C)N(C[C@H]2CC[C@H](C(F)(F)F)CC2)C3)nc1` (single isomer, unassigned), the EC50 is 1000 to 5000 nM (read-out: Value of the concentration required for 50% inhibition (EC50) of RORγ, 15 nM RORc-LBD, 200 nM SRC1 peptide, 4° C. overnight, tested form: hydrochloride, listed as Example 5 (hydrochloride)) and less than 100 nM (read-out: Value of the concentration required for 50% inhibition (EC50) of RORγ, 15 nM RORc-LBD, 200 nM SRC1 peptide, 4° C. overnight, tested form: hydrochloride, listed as Example 6 (hydrochloride)). Consider `CCS(=O)(=O)c1ccc([C@H](CO)NC(=O)c2cc3c(s2)C(C(C)C)N(C[C@H]2CC[C@H](C(F)(F)F)CC2)C3)cc1` (single isomer, unassigned), for which the EC50 was less than 100 nM (read-out: Value of the concentration required for 50% inhibition (EC50) of RORγ, 15 nM RORc-LBD, 200 nM SRC1 peptide, 4° C. overnight, tested form: hydrochloride, listed as Example 12 (hydrochloride)) and 1000 to 5000 nM (read-out: Value of the concentration required for 50% inhibition (EC50) of RORγ, 15 nM RORc-LBD, 200 nM SRC1 peptide, 4° C. overnight, tested form: hydrochloride, listed as Example 13 (hydrochloride)).
